The record followed here is PMC6270184, “Synthesis and Structure-Activity Relationships of Amino Acid Conjugates of Cholanic Acid as Antagonists of the EphA2 Receptor” (Molecules, 2013).

The chains behind the UniProt entries cited, without tags or fusion partners. A line that says so, or that is headed by a name, gives the form on record, which may keep a tag or linker. Residues count along the entry.
UniProt Q03145, with tags, fused parts or gaps limits assumed: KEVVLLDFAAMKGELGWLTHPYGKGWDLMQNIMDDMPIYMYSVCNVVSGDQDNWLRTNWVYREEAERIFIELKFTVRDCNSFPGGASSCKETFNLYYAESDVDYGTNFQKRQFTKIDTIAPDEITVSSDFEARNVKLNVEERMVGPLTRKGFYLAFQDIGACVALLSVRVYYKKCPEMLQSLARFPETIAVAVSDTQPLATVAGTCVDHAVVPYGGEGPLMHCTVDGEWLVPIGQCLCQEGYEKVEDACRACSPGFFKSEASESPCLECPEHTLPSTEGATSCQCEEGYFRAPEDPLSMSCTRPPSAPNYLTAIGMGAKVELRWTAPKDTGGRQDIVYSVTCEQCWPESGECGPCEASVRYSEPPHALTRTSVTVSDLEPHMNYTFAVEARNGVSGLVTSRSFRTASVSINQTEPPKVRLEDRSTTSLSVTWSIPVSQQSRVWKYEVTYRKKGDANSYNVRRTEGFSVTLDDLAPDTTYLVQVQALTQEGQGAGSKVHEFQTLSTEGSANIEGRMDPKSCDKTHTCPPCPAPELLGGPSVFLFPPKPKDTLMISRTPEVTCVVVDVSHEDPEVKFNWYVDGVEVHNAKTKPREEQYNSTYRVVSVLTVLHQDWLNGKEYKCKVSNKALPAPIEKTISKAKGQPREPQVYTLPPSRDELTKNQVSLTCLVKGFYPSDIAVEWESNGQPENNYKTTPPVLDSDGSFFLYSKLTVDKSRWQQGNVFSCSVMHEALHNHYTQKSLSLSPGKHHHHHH
UniProt P29317, 24-976: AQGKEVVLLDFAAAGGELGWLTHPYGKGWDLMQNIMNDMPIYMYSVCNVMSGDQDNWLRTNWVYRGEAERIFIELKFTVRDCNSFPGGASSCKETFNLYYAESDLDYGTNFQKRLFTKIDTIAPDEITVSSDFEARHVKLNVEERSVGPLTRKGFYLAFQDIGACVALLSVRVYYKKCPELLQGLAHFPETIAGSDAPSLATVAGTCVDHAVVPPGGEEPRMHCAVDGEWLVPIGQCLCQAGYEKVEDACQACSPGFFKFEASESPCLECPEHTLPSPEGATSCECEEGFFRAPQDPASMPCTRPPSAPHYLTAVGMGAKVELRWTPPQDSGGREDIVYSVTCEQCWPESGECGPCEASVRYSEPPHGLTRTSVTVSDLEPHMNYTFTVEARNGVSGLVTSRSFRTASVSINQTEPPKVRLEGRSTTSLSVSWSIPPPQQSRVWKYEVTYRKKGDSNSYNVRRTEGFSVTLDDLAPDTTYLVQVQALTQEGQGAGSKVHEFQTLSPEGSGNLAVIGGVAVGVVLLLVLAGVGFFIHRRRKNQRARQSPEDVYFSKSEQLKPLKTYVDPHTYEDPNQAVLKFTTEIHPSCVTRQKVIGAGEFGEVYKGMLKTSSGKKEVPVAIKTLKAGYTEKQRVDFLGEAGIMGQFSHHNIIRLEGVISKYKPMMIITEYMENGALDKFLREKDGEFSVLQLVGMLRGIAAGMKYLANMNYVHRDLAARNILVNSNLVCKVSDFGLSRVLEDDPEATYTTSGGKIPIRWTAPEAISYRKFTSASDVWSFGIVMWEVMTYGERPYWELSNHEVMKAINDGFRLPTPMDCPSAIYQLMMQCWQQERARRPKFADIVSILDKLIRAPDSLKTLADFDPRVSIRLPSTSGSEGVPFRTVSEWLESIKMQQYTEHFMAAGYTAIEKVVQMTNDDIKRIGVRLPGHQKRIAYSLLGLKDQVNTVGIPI

Molecules are shown by their SMILES.

One experiment deals with EphA2 receptor (Mus musculus, UniProt Q03145). The experiment can be described thus: ELISA displacement of ephrin-A1 binding from immobilized EphA2 receptor. (In general: In an ELISA, binding on a coated surface is turned into a signal by an enzyme label.)
The next experiment addresses EphA2 (Homo sapiens, UniProt P29317). The experiment can be described thus: EphA2 phosphorylation induced by ephrin-A1-Fc in PC3 cells. As to conditions: PC3 cells, 50, 25, 12, 6 μM, Figure 3.

`C[C@H](CCC(=O)NCC(=O)O)[C@H]1CC[C@H]2[C@@H]3CC[C@@H]4CCCC[C@]4(C)[C@H]3CC[C@]12C` [Compound 2, N-(5β-cholan-24-oyl)glycine]: the half-maximal inhibitory concentration (IC50) (as a rule, the concentration needed to halve the response being measured) on EphA2 receptor was 13.2 µM. The “inhibition of EphA2 phosphorylation relative to 1 (in words)” value on EphA2 is reported as “less potent than 1”.
